In PubChem BioAssay AID588405 (Sanford-Burnham Center for Chemical Genomics, 2011):
This is a selection; strong and weak results do not stand in their true shares. Calls of active or inactive are those of the source.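 Rule for the calls: active = inhibition of at least 50% at 20 µM; inactive = the rest.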

assay: Peg3 promoter-driven luciferase inhibitors, primary screen, cell-based, HeLa, luciferase luminescence (AID 588405); conditions: HeLa PEG-Prom luciferase reporter, overnight, at 20 µM, stronger effect = higher value

Row | Compound | inhibition
1 | CP(=O)(Nc1ccccc1F)Oc1ccccc1 (configuration not stated) | inactive: -30.1%
2 | CC(C)c1ccc(OP(C)(=O)Nc2ccc(SC(F)(F)F)cc2)cc1 (configuration not stated) | inactive: 16.2%
3 | O=[N+]([O-])c1cc([N+](=O)[O-])c(Nc2ccc(Cl)cc2)c([N+](=O)[O-])c1 | inactive: 46.1%
4 | CP(=O)(Nc1ccccc1)Oc1ccc(F)cc1 (configuration not stated) | inactive: 4.88%
5 | CCCCCOc1ccc(NP(C)(=O)Oc2ccc(Cl)cc2Cl)cc1 (configuration not stated) | inactive: 2.32%
6 | O=[N+]([O-])c1cc([N+](=O)[O-])c(OC2CCCCC2O)c([N+](=O)[O-])c1 (configuration not stated) | inactive: 11.6%
7 | Cc1c([N+](=O)[O-])cc([N+](=O)[O-])c(Br)c1[N+](=O)[O-] | inactive: -2.61%
8 | CCN(CC)CCCOC(=O)C(O)(c1ccccc1)C1CCCCC1 (configuration not stated) | inactive: -9.29%
9 | CCOC(=O)c1ccc(NP(C)(=O)Oc2ccc(F)cc2)cc1 (configuration not stated) | inactive: -2.44%
10 | COc1ccc(OP(C)(=O)Nc2ccc(SC(F)(F)F)cc2)cc1 (configuration not stated) | inactive: 10.2%
11 | Cc1c(C(c2ccc3c(c2)OCO3)c2c(C)n(C)n(-c3ccccc3)c2=O)c(=O)n(-c2ccccc2)n1C.O=[N+]([O-])c1cc([N+](=O)[O-])c(O)c([N+](=O)[O-])c1 | inactive: 1.56%
12 | O=[N+]([O-])c1ccc(OP2(=O)COCCO2)cc1 (configuration not stated) | inactive: 0.43%
13 | O=[N+]([O-])c1cc([N+](=O)[O-])c(NCC2CCS(=O)(=O)C2)c([N+](=O)[O-])c1 (configuration not stated) | inactive: 19.8%
14 | Cc1cc(-c2cccc3ccccc23)c(C)cn1.O=[N+]([O-])c1cc([N+](=O)[O-])c(O)c([N+](=O)[O-])c1 | inactive: -5.34%
15 | CN(C)CCOC(=O)C(O)(c1ccccc1)C1CCCCC1 (configuration not stated) | inactive: -0.79%
16 | COc1ccc(NP(C)(=O)Oc2ccccc2OC)cc1 (configuration not stated) | inactive: -7.54%
17 | COc1ccc(OP(C)(=O)Nc2cccc(Br)c2)cc1 (configuration not stated) | inactive: 16.3%
18 | Cc1ccccc1NP(C)(=O)Nc1ccccc1C | inactive: 2.5%
19 | CP(=O)(Nc1ccc2c(c1)OCCO2)Oc1ccccc1 (configuration not stated) | inactive: -7.87%
20 | CP(=O)(Nc1ccc(SC(F)(F)F)cc1)Oc1ccc(F)cc1 (configuration not stated) | inactive: 29.6%
21 | CN(C)C(=O)c1c([N+](=O)[O-])cc([N+](=O)[O-])cc1[N+](=O)[O-] | inactive: 12.6%
22 | COc1ccccc1OP(C)(=O)Nc1ccccc1Br (configuration not stated) | inactive: 11.8%
23 | CC(C)(C)c1ccc(OP(C)(=O)O)cc1 | inactive: -5.48%
24 | CP(=O)(Nc1ccc(Cl)cc1)Oc1ccc(F)cc1 (configuration not stated) | inactive: 5.59%

Row | Compound | inhibition
25 | COc1ccccc1OP(C)(=O)Nc1c(C)n(C)n(-c2ccccc2)c1=O (configuration not stated) | inactive: 3.23%
26 | O=C(OCCCN1CCCC1)C(O)(c1ccccc1)C1CCCCC1 (configuration not stated) | inactive: 0.39%
27 | CP(=O)(Oc1ccccc1)N1CCOC1=O (configuration not stated) | inactive: 0.51%
28 | CCc1ccc(OP(C)(=O)Nc2cccnc2)cc1 (configuration not stated) | inactive: 2.21%
29 | CCN(CC)CC(O)COC(=O)C(O)(c1ccccc1)C1CCCCC1 (configuration not stated) | inactive: -24.3%
30 | COc1ccc(OP(C)(=O)Nc2ccc(Br)cc2)cc1 (configuration not stated) | inactive: -14%
31 | CCOC(=O)c1ccc(NP(C)(=O)Oc2ccc(Cl)cc2)cc1 (configuration not stated) | inactive: 18.9%
32 | CP(=O)(OC12CC3CC(CC(C3)C1)C2)OC12CC3CC(CC(C3)C1)C2 | inactive: 10.4%
33 | CCCCCCCCCCCCCCCC1C[N+](C)(C)CCOP(C)(=O)O1 (configuration not stated) | active: 52.7%
34 | CP(=O)(Nc1ccc(Cl)cc1Cl)Oc1ccccc1 (configuration not stated) | inactive: 14.7%
35 | CP(=O)(OCCOc1ccccc1)OCCOc1ccccc1 | inactive: 0.03%
36 | COc1ccccc1OP(C)(=O)Nc1ccc(C)c(C)c1 (configuration not stated) | inactive: 6.82%
37 | COc1ccc(OP(C)(=O)Nc2ccccc2Br)cc1 (configuration not stated) | inactive: 8.77%
38 | O=C1C(O)=C([N+](=O)[O-])C(=O)C(O)=C1[N+](=O)[O-] | inactive: -2.41%
39 | Cc1cc(C)cc(OP(C)(=O)Nc2cccc(C(F)(F)F)c2)c1 (configuration not stated) | inactive: 12.4%
40 | CP(=O)(Nc1ccccn1)Oc1ccccc1 (configuration not stated) | inactive: 2.6%
41 | COc1ccccc1OP(C)(=O)Nc1ccc(C)cc1C (configuration not stated) | inactive: 6.74%
42 | CCc1ccc(OP(C)(=O)O)cc1 | inactive: -0.98%
43 | Cc1c(NP(C)(=O)Oc2ccc(C(C)C)cc2)c(=O)n(-c2ccccc2)n1C (configuration not stated) | inactive: -2.94%
44 | O=[N+]([O-])c1cc([N+](=O)[O-])c(Nc2ccccn2)c([N+](=O)[O-])c1 | inactive: 26.6%
45 | COc1ccc(OP(C)(=O)Nc2ccccn2)cc1 (configuration not stated) | inactive: 3.43%
46 | CN(C)CCOC(=O)C(O)(c1ccccc1)C1CCCC1 (configuration not stated) | inactive: -0.79%
47 | COc1ccccc1OP(C)(=O)Nc1ccc(Br)cc1 (configuration not stated) | inactive: 6.72%
